Species: Mus musculus
Assay: Compound was evaluated for Carcinogenicity based on concentration necessary to produce one tumor per mouse (Strain A)

Row | Structure (SMILES) | Log 1/B+1
1 | Nc1cc(N)cc(N(CCCl)CCCl)c1 | 4.12
2 | CCCCc1ccc(N(CCCl)CCCl)cc1 | 2.22
3 | NS(=O)(=O)c1ccc(N(CCCl)CCCl)cc1 | 1.66
4 | COc1ccc(N(CCCl)CCCl)cc1 | 3.4

— ChEMBL document CHEMBL1121662 (1981)
